Laboratory results reported in patent publication US11072584B2, “Carbon monoxide releasing norbornenone compounds” (OTAGO INNOVATION LIMITED, priority 2015, dated 2021).
Entries after “also recorded” stand apart in the source; their conditions may differ. Structures can show the parent of a compound that is named as a salt.

Test: Solubility in water
Assay type: physicochemical
Settings: water or physiological buffers; bis-trifluoroacetate Salt

CC12C(=O)C(C)(C(c3ccccc3)=C1c1ccccc1)C1(Br)C(=O)N(CCNCCN)C(=O)C21 (stereo not shown) [oCOm-23, 2-(2-(2-Aminoethyl)aminoethyl)-3a-bromo-3a,4,7,7a-tetrahydro-4,7-dimethyl-5,6-diphenyl-4,7-methano-1H-isoindole-1,3,8(2H)-trione bis-trifluoroacetate Salt]
solubility (in words): increased solubility; also recorded: water soluble
